{
  "sequences": {"note": "Sequences of proteins named here, by UniProt entry; tags and fusion partners are left off.", "UniProt P47746, whole entry": "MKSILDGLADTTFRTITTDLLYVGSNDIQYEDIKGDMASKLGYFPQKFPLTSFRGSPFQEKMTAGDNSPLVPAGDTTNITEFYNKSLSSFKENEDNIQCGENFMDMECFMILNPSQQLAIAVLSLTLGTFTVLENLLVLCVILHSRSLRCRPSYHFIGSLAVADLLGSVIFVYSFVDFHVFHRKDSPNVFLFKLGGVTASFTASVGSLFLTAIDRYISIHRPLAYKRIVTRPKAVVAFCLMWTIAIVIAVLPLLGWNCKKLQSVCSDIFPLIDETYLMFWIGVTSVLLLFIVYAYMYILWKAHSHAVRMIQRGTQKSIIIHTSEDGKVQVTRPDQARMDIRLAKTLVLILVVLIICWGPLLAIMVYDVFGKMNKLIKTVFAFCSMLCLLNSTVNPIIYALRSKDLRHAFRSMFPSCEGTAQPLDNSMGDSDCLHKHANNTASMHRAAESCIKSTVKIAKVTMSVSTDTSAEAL"},
  "source": "paper PMC2895947",
  "about": "(Neuropsychopharmacology : official publication of the …, 2010)",
  "key": {"[1]": {"test": "THC blood and brain levels, single bolus vs cumulative dosing", "assay_type": "in vivo", "conditions": "C57Bl/6J mice, mean ± SEM"}, "[2]": {"target": "T1, CB1 receptor (Mus musculus, UniProt P47746)", "assay_type": "biochemical, mice"}, "[3]": {"target": "T1, CB1 receptor", "test": "[3H]WIN55,212-2 autoradiography in brain sections after subchronic treatment", "assay_type": "binding", "conditions": "FAAH−/− mice treated subchronically; 1 nM radioligand; mean ± SEM"}, "[4]": {"target": "T1, CB1 receptor", "test": "Agonist-stimulated [35S]GTPγS binding in spinal cord membranes", "assay_type": "biochemical, mice"}, "[5]": {"conditions": "FAAH−/− mice treated subchronically, WIN55,212-2 10 μM, mean ± SEM"}},
  "data": [
    {"smiles": "CCCCCc1cc(O)c2c(c1)OC(C)(C)[C@@H]1CCC(C)=C[C@@H]21", "note": "[THC, Δ^9-tetrahydrocannabinol]", "values": [
      {"measurement": "Blood THC level, single bolus", "setting": "[1]; THC 3 mg/kg", "result": "97 ± 14", "unit": "ng/mL"},
      {"measurement": "Blood THC level, cumulative dosing", "setting": "[1]; THC 10 mg/kg cumulative", "result": "179 ± 23", "unit": "ng/mL"},
      {"measurement": "Blood THC level, single bolus", "setting": "[1]; THC 10 mg/kg", "result": "209 ± 28", "unit": "ng/mL"},
      {"measurement": "Blood THC level, cumulative dosing", "setting": "[1]; THC 30 mg/kg cumulative", "result": "438 ± 102", "unit": "ng/mL"},
      {"measurement": "Blood THC level, single bolus", "setting": "[1]; THC 30 mg/kg", "result": "456 ± 83", "unit": "ng/mL"},
      {"measurement": "Blood THC level, cumulative dosing", "setting": "[1]; THC 56 mg/kg cumulative", "result": "1315 ± 386", "unit": "ng/mL"},
      {"measurement": "Blood THC level, single bolus", "setting": "[1]; THC 56 mg/kg", "result": "1054 ± 184", "unit": "ng/mL"},
      {"measurement": "WIN55,212-2-stimulated [35S]GTPγS binding vs vehicle control (study 1, Figure 5)", "setting": "[2]; FAAH+/+ and FAAH−/− mice, caudate putamen, hippocampus, cerebellum", "result": "significantly reduced"},
      {"measurement": "Net WIN55,212-2-stimulated [35S]GTPγS binding, Caudate-Putamen", "setting": "[2]; [5]", "result": "97 ± 16", "unit": "nCi/g"},
      {"measurement": "Net WIN55,212-2-stimulated [35S]GTPγS binding, Cerebellum", "setting": "[2]; [5]", "result": "138 ± 21", "unit": "nCi/g"},
      {"measurement": "Net WIN55,212-2-stimulated [35S]GTPγS binding, Globus Pallidus", "setting": "[2]; [5]", "result": "539 ± 41", "unit": "nCi/g"},
      {"measurement": "Net WIN55,212-2-stimulated [35S]GTPγS binding, Hippocampus", "setting": "[2]; [5]", "result": "65 ± 14", "unit": "nCi/g"},
      {"measurement": "Net WIN55,212-2-stimulated [35S]GTPγS binding, PAG", "setting": "[2]; [5]", "result": "55 ± 13", "unit": "nCi/g"},
      {"measurement": "Net WIN55,212-2-stimulated [35S]GTPγS binding, Substantia Nigra", "setting": "[2]; [5]", "result": "506 ± 32", "unit": "nCi/g"},
      {"measurement": "Specific [3H]WIN55,212-2 binding, Caudate-Putamen", "setting": "[3]", "result": "0.82 ± 0.11", "unit": "pCi/g"},
      {"measurement": "Specific [3H]WIN55,212-2 binding, Cerebellum", "setting": "[3]", "result": "1.19 ± 0.12", "unit": "pCi/g"},
      {"measurement": "Specific [3H]WIN55,212-2 binding, Globus Pallidus", "setting": "[3]", "result": "1.55 ± 0.12", "unit": "pCi/g"},
      {"measurement": "Specific [3H]WIN55,212-2 binding, Hippocampus", "setting": "[3]", "result": "0.49 ± 0.07", "unit": "pCi/g"},
      {"measurement": "Specific [3H]WIN55,212-2 binding, PAG", "setting": "[3]", "result": "0.43 ± 0.07", "unit": "pCi/g"},
      {"measurement": "Specific [3H]WIN55,212-2 binding, Substantia Nigra", "setting": "[3]", "result": "2.25 ± 0.20", "unit": "pCi/g"}
    ]},
    {"smiles": "Cc1c(C(=O)c2cccc3ccccc23)c2cccc3c2n1[C@H](CN1CCOCC1)CO3", "note": "[WIN, WIN55,212-2]", "values": [
      {"measurement": "Emax of agonist-stimulated [35S]GTPγS binding", "setting": "[4]; spinal cord membranes from AEA-treated FAAH−/− mice", "result": "33 ±3.2", "unit": "% Stim"},
      {"measurement": "Emax as percent of that obtained in vehicle-treated mice", "setting": "[4]; spinal cord membranes from AEA-treated mice", "result": 85, "unit": "%"},
      {"measurement": "Emax of agonist-stimulated [35S]GTPγS binding", "setting": "[4]; spinal cord membranes from THC-treated FAAH−/− mice", "result": "27 ± 1.4", "unit": "% Stim"},
      {"measurement": "Emax as percent of that obtained in vehicle-treated mice", "setting": "[4]; spinal cord membranes from THC-treated mice", "result": 72, "unit": "%"},
      {"measurement": "Emax of agonist-stimulated [35S]GTPγS binding", "setting": "[4]; spinal cord membranes from vehicle-treated FAAH−/− mice", "result": "39 ± 3.1", "unit": "% Stim"}
    ]}
  ]
}
